## Ab-14 heavy chain CDR variants: yeast mating affinities

Binding partner: SARS-CoV-2 spike HR2 peptide, sequence PDVDLGDISGINAS.

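The library (AAYL49) carries one to three amino acid substitutions per variant, with no insertions or deletions. AlphaSeq pools MATa yeast showing the antibodies with MATalpha yeast showing the peptide. Binding brings cells together so that they mate, and sequencing counts the barcode pairs among the diploids. Scores were corrected for input abundance and mapped to Kd with protein pairs of known affinity run in the same pool. Mating was done three times.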

Parent scFv Ab-14: VH joined to VL by a 15-residue (Gly4Ser)3 linker. Changes lie in the heavy chain CDRs alone.
VH: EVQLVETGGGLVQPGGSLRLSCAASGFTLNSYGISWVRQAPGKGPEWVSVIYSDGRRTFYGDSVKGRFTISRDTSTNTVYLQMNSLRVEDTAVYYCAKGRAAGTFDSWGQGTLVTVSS
VL: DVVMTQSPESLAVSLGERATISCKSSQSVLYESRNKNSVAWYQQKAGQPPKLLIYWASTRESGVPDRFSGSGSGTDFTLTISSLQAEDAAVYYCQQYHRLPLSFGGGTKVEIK

Positions count from residue 1 of the parent VH; S63T puts T in place of S. All variants listed here change S63 of the VH, counted from its first residue. Values are log10 of the apparent Kd in nM; lower means stronger binding. The mean shown is taken over the replicates in which the pair was detected. "not detected" means that the variant was in the library but no mating with the target was seen in any replicate; the authors take this as a sign of poor binding, and no number exists. In this assay the parent's reference entry averaged 0.65; its copy inside this library read 4.11 (one replicate of three).

changes,"mean, log10 nM",seen in
S63T,1.42,3 of 3
L29I T58M S63K,1.55,3 of 3
G33P S63T A102R,5.29,1 of 3
V50R S63P S107T,4.11,2 of 3
F59D S63I,not detected,0 of 3
S53F S63V S107C,5.05,2 of 3
N30H G61W S63I,not detected,0 of 3
G33R S63D V64M,not detected,0 of 3
T58N S63C G103H,not detected,0 of 3
F27K V50W S63E,not detected,0 of 3
N30W S63G K65I,2.40,1 of 3
R56A S63V A101F,3.38,1 of 3
S35W S63C,4.71,2 of 3
S63G V64W S107G,3.37,1 of 3
D54V Y60C S63I,not detected,0 of 3
Y52F S63Q R100E,1.38,3 of 3
S31Q G61S S63P,4.17,1 of 3
S63N G99H S107I,0.52,3 of 3
R56Q D62T S63F,4.73,3 of 3
D54R S63N A102C,4.11,1 of 3
S63K A101D F105P,not detected,0 of 3
G33Q S63N F105N,not detected,0 of 3
F59T S63Q G103Q,2.35,2 of 3
S63K,1.83,3 of 3
N30S S53H S63Q,not detected,0 of 3
S63E A102S F105P,1.50,3 of 3
R56T S63W,2.24,3 of 3
Y52F D62V S63D,2.64,1 of 3
V50T G55E S63M,not detected,0 of 3
S63K G103V S107R,not detected,0 of 3
S63Q F105M D106G,3.45,1 of 3
S31H S63A T104E,1.66,3 of 3
S63T R100E A102Y,not detected,0 of 3
S63M A102P S107F,1.78,3 of 3
G26M R57E S63W,not detected,0 of 3
S35G G61Y S63P,4.18,1 of 3
Y52V S63I S107L,not detected,0 of 3
G55V S63H G103C,not detected,0 of 3
F27C S63W T104Y,4.31,1 of 3
S31Y S63C G103K,2.56,3 of 3
S53R F59E S63E,4.30,1 of 3
Y60D S63H D106E,5.59,1 of 3
Y52I S63Y R100W,not detected,0 of 3
Y52M G61S S63C,4.44,1 of 3
G61H S63M A101F,3.00,3 of 3
G33Y D54G S63I,not detected,0 of 3
T28Q S63V G103N,not detected,0 of 3
I51P S63H F105A,2.64,1 of 3
Y60E S63R,4.23,2 of 3
T28H S63P R100M,2.24,3 of 3
G61C S63H G103W,not detected,0 of 3
D54A S63E,not detected,0 of 3
S63Q V64R R100K,not detected,0 of 3
S63K A101L,1.54,3 of 3
G33A D62E S63E,3.04,1 of 3
D54A S63R V64N,not detected,0 of 3
S53E R56C S63I,3.25,1 of 3

Excerpt, the first 10 entries:

changes	mean, log10 nM	seen in
S63T	1.42	3 of 3
L29I T58M S63K	1.55	3 of 3
G33P S63T A102R	5.29	1 of 3
V50R S63P S107T	4.11	2 of 3
F59D S63I	not detected	0 of 3
S53F S63V S107C	5.05	2 of 3
N30H G61W S63I	not detected	0 of 3
G33R S63D V64M	not detected	0 of 3
T58N S63C G103H	not detected	0 of 3
F27K V50W S63E	not detected	0 of 3

As a blank, each scFv also met three strains without target: over library AAYL49, 15% of these pairings were detected, typically at 4.06 and seldom below 2.83.

Source: Engelhart et al. 2022 (doi:10.1038/s41597-022-01779-4), MIT Lincoln Laboratory and A-Alpha Bio; data file from the FLAb repository.